# Values of other authors as cited in patent publication US20040254629A1, “Methods and apparatus for treatment of aneurysmal tissue” (priority 2003, published 2004).
# Settings: in vivo; cited from earlier work
smiles,measurement,value
NCCCC[C@H](N[C@@H](CCc1ccccc1)C(=O)O)C(=O)N1CCC[C@H]1C(=O)O [lisinopril],elimination / clearance route,cleared as the intact compound in the kidney
